Reference: patent US20150065447A1, “SURVIVAL BENEFIT IN PATIENTS WITH SOLID TUMORS WITH ELEVATED C-REACTIVE PROTEIN LEVELS” (Incyte Corporation, priority 2013, published 2015)

Amino acid sequences for entries named in this document (tags omitted). Residues count along the entry.
UniProt P23458, 849-1154: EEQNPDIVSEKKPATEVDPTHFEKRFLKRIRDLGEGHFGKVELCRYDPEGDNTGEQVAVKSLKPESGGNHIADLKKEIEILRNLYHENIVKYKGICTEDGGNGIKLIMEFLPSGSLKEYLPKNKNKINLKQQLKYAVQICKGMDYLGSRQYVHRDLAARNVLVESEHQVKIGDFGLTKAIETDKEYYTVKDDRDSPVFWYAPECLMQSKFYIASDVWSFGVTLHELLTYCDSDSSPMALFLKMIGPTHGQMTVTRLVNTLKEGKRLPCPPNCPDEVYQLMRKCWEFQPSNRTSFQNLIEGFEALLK

Biological target: T1, human JAK1 (a.a. 837-1142) (Homo sapiens, UniProt P23458)
T1 construct: human JAK1 (a.a. 837-1142); His tag (N); made in house; host or cells: insect cells (baculovirus)
Assay: In vitro JAK Kinase Assay (HTRF), JAK1
Format: biochemical
Details: 1 mM ATP

IC50: < 10 nM
Structure (SMILES): CN(C)Cc1cc(F)cc(OC2CCN(CC(CC#N)n3cc(-c4ncnc5[nH]ccc45)cn3)CC2)c1 (single isomer, unassigned) [Compound 14, 4-(4-{3-[(dimethylamino)methyl]-5-fluorophenoxy}piperidin-1-yl)-3-[4-(7H-pyrrolo[2,3-d]pyrimidin-4-yl)-1H-pyrazol-1-yl]butanenitrile]
